# In paper PMC5226287 (Pharmacology Research & Perspectives, 2016):
# Details: human, in vivo
substance,measurement,value
buprenorphine,t max,2 (1–3) h
